Tested on: FLT3/ITD MV4-11 xenografts
Assay: Survival of FLT3/ITD MV4-11 xenografts
Assay type: in vivo
Conditions: MV4-11 s.c. in SCID mice; quizartinib 0.4 mg/kg daily for 21 days by mouth; ADC 10 mcg/kg once i.p.; FIG. 5
Procedure: Five million MV4-11 cells were implanted subcutaneously in SCID mice. Tumor growth was monitored throughout the course of the study with bilateral vernier caliper measurements, and mean tumor volumes were calculated using the equation (0.5×[length×width^2]).
Mice with advanced tumor burden were sacrificed upon reaching tumor volumes of greater than 400 mm^3 or showing symptoms of hind limb paralysis, cranial swelling, and/or moribundity.

## CC(C)(C)c1cc(NC(=O)Nc2ccc(-c3cn4c(n3)sc3cc(OCCN5CCOCC5)ccc34)cc2)no1 [quizartinib, 1-(5-(tert-Butyl)isoxazol-3-yl)-3-(4-(7-(2-morpholinoethoxy)benzo[d]imidazo[2,1-b]thiazol-2-yl)phenyl)urea, reference compound]
  effect on progression / survival: induced delay of progression
